According to PubChem BioAssay AID488969 (Vanderbilt High Throughput Screening Facility, 2010):
This is a selection; strong and weak results do not stand in their true shares. Some results for these compounds are left out of this collection, so the calls shown say nothing about other tests.

The chains behind the UniProt entries cited, without tags or fusion partners.
UniProt P70579, whole entry: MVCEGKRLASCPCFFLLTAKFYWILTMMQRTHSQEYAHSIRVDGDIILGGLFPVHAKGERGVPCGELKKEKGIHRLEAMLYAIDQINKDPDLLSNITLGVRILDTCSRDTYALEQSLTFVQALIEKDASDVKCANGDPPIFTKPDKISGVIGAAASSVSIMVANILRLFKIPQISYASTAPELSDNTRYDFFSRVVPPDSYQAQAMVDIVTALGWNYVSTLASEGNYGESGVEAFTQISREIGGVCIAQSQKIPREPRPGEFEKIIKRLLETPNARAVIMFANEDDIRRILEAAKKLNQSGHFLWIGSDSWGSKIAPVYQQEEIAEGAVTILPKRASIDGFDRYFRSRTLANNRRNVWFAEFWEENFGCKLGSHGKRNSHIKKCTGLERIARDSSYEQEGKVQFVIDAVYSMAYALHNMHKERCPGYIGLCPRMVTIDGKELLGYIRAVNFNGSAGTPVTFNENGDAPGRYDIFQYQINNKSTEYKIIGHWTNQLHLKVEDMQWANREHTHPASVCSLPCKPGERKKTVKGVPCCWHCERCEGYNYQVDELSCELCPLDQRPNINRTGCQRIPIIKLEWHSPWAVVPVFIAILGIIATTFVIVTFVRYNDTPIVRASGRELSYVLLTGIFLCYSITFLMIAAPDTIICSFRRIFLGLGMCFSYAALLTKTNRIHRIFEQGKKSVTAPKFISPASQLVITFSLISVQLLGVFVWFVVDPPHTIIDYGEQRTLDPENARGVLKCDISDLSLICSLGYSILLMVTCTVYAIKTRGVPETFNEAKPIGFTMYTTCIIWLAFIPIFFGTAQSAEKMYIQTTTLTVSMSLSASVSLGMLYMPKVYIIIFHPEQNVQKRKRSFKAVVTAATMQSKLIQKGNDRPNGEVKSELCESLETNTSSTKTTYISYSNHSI

Target: Metabotropic glutamate receptor 8 (Rattus norvegicus) (UniProt P70579)
Assay: mGluR8 Gi/Go-coupled signaling modulation – cell-based, rat, thallium flux, HTS, primary screen (AID 488969)
Conditions: HEK293 rat mGluR8, GIRK (G protein-gated inwardly rectifying potassium channel) thallium flux, FluoZin2; at 10 µM; stronger effect = higher value; submaximal glutamate (EC20) added with thallium

Question: How did the z-score turn out when CN(C)c1cccc(C(=O)NCC2(N(C)C)CCCCC2)c1 was run?
Answer: 0.57

Question: Which z-score does the source give for CC(C)N1C(=O)CC2(CCN(CCOC(=O)C(O)(c3ccccc3)c3ccccc3)CC2)C1=O here?
Answer: -0.14

Question: CN(C)C1CCCC1OC(=O)C(O)(c1ccccc1)c1ccccc1 (stereo not drawn) was tested. Which z-score did it give?
Answer: 1.75
